Test: soluble on expression in E. coli; label from the status in PepcDB or PDB records

Sequence	soluble on expression in E. coli
MAEDADMRNELEEMQRRADQLADESLESTRRMLQLVEESKDAGIRTLVMLDEQGEQLDRVEEGMNHINQDMKEAEKNLKDLGK	soluble
MRGSHHHHHHTDPQGDAAQKTDTSHHDQDHPTFNKITPNLAEFAFSLYRQLAHQSNSTNIFFSPVSIATAFAMLSLGTKADTHDEILEGLNFNLTEIPEAQIHEGFQELLRTLNQPDSQLQLTTGNFLFLSEGLKLVDKFLEDVKKLYHSEAFTVNFGDTEEAKKQINDYVEKGTQGKIVDLVKELDRDTVFALVNYIFFKGKWERPFEVKDTEEEDFHVDQVTTVKVPMMKRLGMFNIQHCKKLSSWVLLMKYLGNATAIFFLPDEGKLQHLENELTHDIITKFLENEDRRSASLHLPKLSITGTYDLKSVLGQLGITKVFSNGADLSGVTEEAPLKLSKAVHKAVLTIDEKGTEAAGAMFLEAIPMSIPPEVKFNKPFVFLMIEQNTKSPLFMGKVVNPTQK	soluble
MTMESGAENQQSGDAAVTEAENQQMTVQAQPQIATLAQVSMPAAHATSSAPTVTLVQLPNGQTVQVHGVIQAAQPSVIQSPQVQTVQSSCKDLKRLFSGTQISTIAESEDSQESVDSVTDSQKRREILSRRPSYRKILNDLSSDAPGVPRIEEEKSEEETSAPAITTVTVPTPIYQTSSGQYIAITQGGAIQLANNGTDGVQGLQTLTMTNAAATQPGTTILQYAQTTDGQQILVPSNQVVVQAASGDVQTYQIRTAPTSTIAPGVVMASSPALPTQPAEEAARKREVRLMKNREAARECRRKKKEYVKCLENRVAVLENQNKTLIEELKALKDLYCHKSDLEHHHHHH	soluble

Source: the DeepSol protein solubility set
